In BindingDB's records for PubMed 2905001 (Mcneil Pharmaceutical, 1988):
Structures can show the parent of a compound that is named as a salt.

Amino acid sequences for entries named in this document (tags omitted).
UniProt P23977, whole entry: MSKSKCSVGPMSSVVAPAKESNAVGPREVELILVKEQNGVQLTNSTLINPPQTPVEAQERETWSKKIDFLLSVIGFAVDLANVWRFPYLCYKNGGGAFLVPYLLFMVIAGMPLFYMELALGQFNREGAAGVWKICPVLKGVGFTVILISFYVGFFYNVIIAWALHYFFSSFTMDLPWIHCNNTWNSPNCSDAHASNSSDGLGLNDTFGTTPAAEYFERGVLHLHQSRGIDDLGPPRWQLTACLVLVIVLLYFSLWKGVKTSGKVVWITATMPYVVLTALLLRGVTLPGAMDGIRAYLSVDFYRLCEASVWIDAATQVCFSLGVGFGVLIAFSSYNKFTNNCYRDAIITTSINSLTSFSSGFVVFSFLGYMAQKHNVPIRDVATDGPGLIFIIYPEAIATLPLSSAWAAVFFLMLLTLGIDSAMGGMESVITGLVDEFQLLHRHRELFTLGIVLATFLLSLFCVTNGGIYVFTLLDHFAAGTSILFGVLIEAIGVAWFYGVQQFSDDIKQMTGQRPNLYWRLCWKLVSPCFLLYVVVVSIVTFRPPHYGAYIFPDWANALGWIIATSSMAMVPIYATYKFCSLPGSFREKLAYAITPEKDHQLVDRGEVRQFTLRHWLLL
UniProt P14842, whole entry: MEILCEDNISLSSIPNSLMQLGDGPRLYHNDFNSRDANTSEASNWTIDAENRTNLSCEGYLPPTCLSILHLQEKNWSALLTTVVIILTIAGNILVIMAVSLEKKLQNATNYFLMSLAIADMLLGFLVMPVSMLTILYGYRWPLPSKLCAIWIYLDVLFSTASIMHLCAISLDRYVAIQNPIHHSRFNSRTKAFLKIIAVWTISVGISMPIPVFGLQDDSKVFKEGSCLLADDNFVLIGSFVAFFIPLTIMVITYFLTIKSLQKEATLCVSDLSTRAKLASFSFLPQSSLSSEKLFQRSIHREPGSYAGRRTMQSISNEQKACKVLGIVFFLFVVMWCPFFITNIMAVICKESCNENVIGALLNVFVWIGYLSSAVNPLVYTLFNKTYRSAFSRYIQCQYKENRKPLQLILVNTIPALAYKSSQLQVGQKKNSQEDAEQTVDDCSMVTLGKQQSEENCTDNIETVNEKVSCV

How the values were obtained:
[1] = target: Sodium-dependent dopamine transporter (Rattus norvegicus, UniProt P23977)
[2] = target: 5-hydroxytryptamine receptor 2A (Rattus norvegicus, UniProt P14842)

Ki [1] [nM] | Structure (SMILES) | Ki [2] [nM]
> 10000 | CN(C)CCCC1(c2ccc(F)cc2)OCc2cc(C#N)ccc21 (stereo not drawn) [CITALOPRAM HYDROBROMIDE] | 
 | O=c1n(CCCN2CCN(c3cccc(Cl)c3)CC2)nc2ccccn12 [2-{3-[4-(3-chlorophenyl)piperazin-1-yl]propyl}[1,2,4]triazolo[4,3-a]pyridin-3(2H)-one] | 1.94
540 | Fc1ccc([C@@H]2CCNC[C@H]2COc2ccc3c(c2)OCO3)cc1 [PAROXETINE] | 
